Legend:
[1] = tested on: VWF-056 (VWF D′D3-Fc with 46 amino acid long little a3 linker)
[2] = tested on: VWF-051 (VWF D′D3-Fc with a linker of 54 amino acids comprising a thrombin cleavage site of A-L-R-P-R-V-V)
[3] = tested on: VWF-039 (VWF D′D3-Fc with thrombin + PAR1 site 26 amino acid long linker)
[4] = tested on: VWF-055 (VWF D′D3-Fc with 34 amino acid long little a2 linker)
[5] = tested on: VWF-054 (VWF D′D3-Fc with 40 amino acid long little a1 linker)

human alpha-thrombin was tested, and the “thrombin cleavage (Biacore, release of D′D3 from captured construct)” value [1] was “˜5-fold reduced thrombin cleavage”, the “ratio of slopes (thrombin-mediated cleavage rate in RU/s against capture density in RU, Biacore) relative to VWF-031” value [2] was “slopeVWF-051/slopeVWF-031 is 1.8” and the “ratio of slopes (thrombin-mediated cleavage rate in RU/s against capture density in RU, Biacore) relative to VWF-031” value [3] was “SlopeVWF-039/slopeVWF-031 is 71”. The “thrombin cleavage rate relative to VWF-031 (Biacore, release of D′D3 from captured construct)” value [3] was “approximately 70-80-fold faster than VWF-031 (LVPR)”, the “ratio of slopes (thrombin-mediated cleavage rate in RU/s against capture density in RU, Biacore) relative to VWF-031” value [4] was “slopeVWF-055/slopeVWF-031 is 65” and the “thrombin cleavage (Biacore, release of D′D3 from captured construct)” value [5] was “˜5-fold reduced thrombin cleavage”.
